Protein sequences, listed by entry. Tags and fused reporters are not part of them.
UniProt Q06187, whole entry: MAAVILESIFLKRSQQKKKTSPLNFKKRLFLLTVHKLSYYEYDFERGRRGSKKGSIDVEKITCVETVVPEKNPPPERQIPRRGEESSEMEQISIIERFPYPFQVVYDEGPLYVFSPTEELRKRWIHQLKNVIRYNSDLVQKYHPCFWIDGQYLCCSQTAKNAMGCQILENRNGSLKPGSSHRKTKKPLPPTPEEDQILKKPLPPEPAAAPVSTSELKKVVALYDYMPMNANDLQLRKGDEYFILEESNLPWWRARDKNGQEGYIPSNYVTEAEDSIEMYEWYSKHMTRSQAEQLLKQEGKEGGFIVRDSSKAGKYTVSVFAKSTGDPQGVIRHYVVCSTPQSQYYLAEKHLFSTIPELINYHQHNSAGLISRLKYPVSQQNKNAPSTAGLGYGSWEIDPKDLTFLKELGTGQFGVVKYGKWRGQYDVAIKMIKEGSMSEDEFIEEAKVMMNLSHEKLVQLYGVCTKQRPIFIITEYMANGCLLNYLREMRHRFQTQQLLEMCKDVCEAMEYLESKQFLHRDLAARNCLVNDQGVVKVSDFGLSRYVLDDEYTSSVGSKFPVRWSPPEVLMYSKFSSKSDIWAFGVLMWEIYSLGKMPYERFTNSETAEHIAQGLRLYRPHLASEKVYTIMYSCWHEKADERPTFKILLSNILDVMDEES
UniProt Q08881, whole entry: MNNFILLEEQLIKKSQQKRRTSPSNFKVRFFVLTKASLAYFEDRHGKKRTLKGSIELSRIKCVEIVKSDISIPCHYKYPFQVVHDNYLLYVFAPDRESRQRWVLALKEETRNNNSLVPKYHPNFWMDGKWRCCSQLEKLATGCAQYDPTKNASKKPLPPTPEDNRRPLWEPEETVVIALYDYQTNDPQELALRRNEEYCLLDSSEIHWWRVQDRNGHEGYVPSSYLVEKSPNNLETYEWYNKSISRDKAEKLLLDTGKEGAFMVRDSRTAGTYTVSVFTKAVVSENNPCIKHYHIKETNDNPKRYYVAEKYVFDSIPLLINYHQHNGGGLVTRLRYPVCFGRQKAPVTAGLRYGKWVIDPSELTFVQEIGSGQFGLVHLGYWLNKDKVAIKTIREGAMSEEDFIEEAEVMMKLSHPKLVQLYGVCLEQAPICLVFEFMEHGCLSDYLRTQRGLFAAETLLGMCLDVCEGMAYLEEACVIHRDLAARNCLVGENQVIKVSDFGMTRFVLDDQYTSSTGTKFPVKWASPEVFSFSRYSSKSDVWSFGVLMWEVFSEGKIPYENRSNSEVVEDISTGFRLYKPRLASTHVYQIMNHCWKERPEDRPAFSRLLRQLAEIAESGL

In patent US11149019B2, “Phenylpyridine derivative and pharmaceutical composition comprising the same” (Daewoong Pharmaceutical Co., Ltd., priority 2017, dated 2021):

Columns and labels:
[1] = biological target: BTK (Homo sapiens, UniProt Q06187); assay: ADP-Glo + BTK Kinase enzyme system kit, inhibitory activity against BTK; conditions: read-out: Inhibitory activity BTK IC50; BTK enzyme 1 ng/ul, ATP 10 μM, 30° C. for 1 hour, luminescence, duplicate
Description: (§1) Inhibitory activities against BTK and ITK were measured for the compounds prepared in the above Examples as follows.
The inhibitory activities against BTK were evaluated using ‘ADP-Glo™+BTK Kinase enzyme system’ kit (Promega Corporation). In a white 96-well plate, 10 ul of BTK enzyme prepared so as to have a final concentration of 1 ng/ul was mixed with 5 μl of compounds having a final concentration of […] the case of evaluating a single concentration of compound and a concentration of 1000, 300, 100, 30, 10, 3, 1, 0.3, 0.1 and 0.03 nM in the case of IC50 evaluation, and then reacted at room temperature for 15 minutes. 5 ul of substrate and 5 ul of ATP prepared so as to have a final concentration of 10 μM were added to the plate on which reactions were completed, and then allowed to react at 30° C. for 1 hour. All wells of the plate were treated with 25 ul of ADP-Glo™ reagent and allowed to react at 30° C. for 40 minutes. After that, all wells were treated with 50 ul of kinase detection buffer, and then reacted at 30° C. for 30 minutes under light shielding conditions. For the plate on which all reactions were completed, luminescence was measured and the results were calculated. Evaluation was carried out in duplicate, and negative control and positive control were calculated depending on whether or not the enzyme was added without treatment of the compound. The IC50 was calculated based on the calculated values.

[2] = biological target: ITK (Homo sapiens, UniProt Q08881); assay: ADP-Glo + ITK Kinase enzyme system kit, inhibitory activity against ITK; conditions: read-out: Inhibitory activity ITK IC50; ITK enzyme 0.4 ng/ul, ATP final concentration of 25 ul, 30° C. for 1 hour, luminescence, duplicate
Description: as §1
The inhibitory activity against ITK was evaluated using ‘ADP-Glo™+ITK Kinase enzyme system’ kit (Promega Corporation). In a white 96-well plate, 10 ul of ITK enzyme prepared so as to have a final concentration of 0.4 ng/ul was mixed with 5 ul of compounds having a final concentration of 1 uM in the case of evaluating a single concentration of compound and a concentration of 1000, 300, 100, 30, 10, 3, 1, 0.3, 0.1 and 0.03 nM in the case of IC50 evaluation, and then reacted at room temperature for 15 minutes. To the plate on which reactions were completed, 5 ul of substrate and 5 ul of ATP prepared so as to have a final concentration of […] added and then allowed to react at 30° C. for 1 hour. All wells of the plate were treated with 25 ul of ADP-Glo™ reagent and then allowed to react at 30° C. for 40 minutes. After that, all wells were treated with 50 ul of kinase detection buffer, and then allowed to react at 30° C. for 30 minutes under light shielding conditions. For the plate on which all reactions were completed, luminescence was measured and the results were calculated. Evaluation was carried out in duplicate, and negative control and positive control were calculated depending on whether or not the enzyme was added without treatment of the compound. The IC50 was calculated based on the calculated values.

pIC50 [1] | pIC50 [2] | Structure (SMILES)
8.51 | 8.22 | C=CC(=O)Nc1cccc(-c2cc(CN3CCN(C(=O)NC(C)C)CC3)cc(Nc3ncc(C)s3)n2)c1
8.59 | 8.17 | C=CC(=O)Nc1cccc(-c2cc(CN3CCN(C(=O)NCC)CC3)cc(Nc3ncc(C)s3)n2)c1
9.05 | 8.70 | C=CC(=O)Nc1cccc(-c2cc(CN3CCN(C(=O)NC)CC3)cc(Nc3ncc(C)s3)n2)c1

Structure (SMILES) | pIC50 [1] | pIC50 [2]
C=CC(=O)Nc1cccc(-c2cc(CN3CCCCC3)cc(Nc3cc(C)[nH]n3)n2)c1 | 7.69 | 7.59

pIC50: −log10 of the molar value.
